Measured values reported in article PMC11053023 (Nature Communications, 2024).

Experiments:
Conditions in all cases: both partners purified
[1] = biological target: T1, FEM1B-elongin B-elongin C ternary complex, wild type (human, UniProt Q9UK73 1-627; Q15370 1-118; Q15369 17-112); assay: ITC; SUMO fusion peptides (0.5-1 mM) titrated into 50 μM FEM1B-EB-EC in the cell, 25 °C, 20 mM Tris, 200 mM NaCl, pH 7.5, 1 mM EDTA; one-site binding model
T1 construct: FEM1B, human, full length (FEM1BFL); elongin B (EB, ELOB), human; elongin C (EC, ELOC), human; also called FEM1BFL-EB-EC; FEM1B-EB-EC; source: E. coli BL21(DE3), FEM1B and EB-EC co-expressed, purified (Ni-NTA, SEC); copies: 2 + 2 + 2

[2] = biological target: T2, FEM1B-EB-EC ternary complex with FEM1B D356A/V391A/Q394A/F501A/H502A (human, UniProt Q9UK73 1-627; Q15370 1-118; Q15369 17-112, D356A | V391A | Q394A | F501A | H502A); assay: as above
T2 construct: FEM1B, human, full length, quintuple mutant of the aromatic (psi) pocket; elongin B (EB, ELOB), human; elongin C (EC, ELOC), human; also called 5A mutant; FEM1BFL-EB-EC D356A/V391A/Q394A/F501A/H502A; source: E. coli BL21(DE3), purified in the same way as the WT protein; copies: + +

[3] = biological target: T1, FEM1B-elongin B-elongin C ternary …; assay: as above; remark: listed apart in the source
[4] = biological target: T3, FEM1B-EB-EC ternary complex (human, UniProt Q9UK73 1-627; Q15370 1-118; Q15369 17-112); assay: ITC; peptides (0.5-1 mM) titrated into 50 μM protein in the cell, 25 °C; 20 mM Tris, 200 mM NaCl, pH 7.5, 1 mM EDTA; one-site binding model
T3 construct: FEM1B, human, full-length (FEM1B^FL); elongin B (EB, ELOB), human; elongin C (EC, ELOC), human; written as one protomer; also called FEM1B-elongin B-elongin C; FEM1B-ELOB-ELOC; source: E. coli BL21(DE3), co-expressed, purified (Ni-NTA, SEC); copies: + +

B1: SUMO-(GGGS)2-CDK5R1 298-307 WT (peptide)
chain: KKRLLLGLDR
notes: CDK5R1, human, C-terminal 10 residues; also called CDK5R1 10-mer; 10-aa CDK5R1 C-degron; source: E. coli BL21(DE3), purified (Ni-NTA; SEC for ITC); not shown: SUMO with (GGGS)2 linker, N-terminal, kept
[1]
  stoichiometry N: 0.49
[2]
  Kd: 7.8 ± 2.1 µM

B2: SUMO-(GGGS)2-MCRIP1 C-term 23-mer (peptide)
chain: GWTIDMRRNEPERTRSLSAPGPL
notes: MCRIP1, human, C-terminal 23 residues; limits not given; source: E. coli BL21(DE3), purified (Ni-NTA; SEC for ITC); not shown: SUMO with (GGGS)2 linker, N-terminal, kept
[3]
  Kd: 1.9 ± 0.1 µM
  stoichiometry N: 0.45

B3: SUMO-(GGGS)2-CDK5R1 285-307 WT (peptide)
chain: VFSDLKNESGQEDKKRLLLGLDR
notes: CDK5R1, human, C-terminal 23 residues; also called CDK5R1 23-mer; 23-aa CDK5R1 C-degron; source: E. coli BL21(DE3), purified (Ni-NTA; SEC for ITC); not shown: SUMO with (GGGS)2 linker, N-terminal, kept
[1]
  stoichiometry N: 0.62

B4: SUMO-(GGGS)2-BEX2 116-128 WT (peptide)
chain: HSLRAVSTDPPHHDHHDEFCLMP
notes: BEX2, human, C-terminal 23 residues; source: E. coli BL21(DE3), purified (Ni-NTA; SEC for ITC); not shown: SUMO with (GGGS)2 linker, N-terminal, kept
[3]
  Kd: 6.8 ± 1 µM
  stoichiometry N: 1.2

B5: PSMB5 C-degron (C-term 23-mer), SUMO fusion (peptide)
peptide: GGGSGGGSDGWIRVSSDNVADLHEKYSGSTP
notes: (Gly-Gly-Gly-Ser)2 linker; last 23 residues of PSMB5, human; numbers count on: the peptide from its C-terminus; source: E. coli BL21(DE3), purified (Ni-NTA, ion exchange, SEC)
[4]
  binding result: binds

B6: CDK5R1 C-degron, 10-aa fragment (peptide)
peptide: KKRLLLGLDR
notes: last 10 residues of CDK5R1, human; also called 10-aa CDK5R1 C-degron; Arg/C-degron of CDK5R1
[4]
  Kd: 7.6 µM
